± gives the expanded uncertainty stated by the source.
Details: 101.33 kPa, Liquid

In the case of `CCCCOCCCC` [dibutyl ether], the mass density (298.15 K) is reported as 764.07 ± 2 kg/m3, the mass density (303.15 K) is reported as 759.73 ± 2 kg/m3 and the mass density (308.15 K) is reported as 755.45 ± 2.1 kg/m3. For the same compound, the speed of sound (308.15 K) was 1179 ± 5.2 m/s and the mass density (313.15 K) was 751.21 ± 2.1 kg/m3.
